Values of other authors, collected in publication PMC5601361, “Targeting the Receptor for Advanced Glycation Endproducts (RAGE): A Medicinal Chemistry Perspective” (Journal of Medicinal Chemistry, 2017).

Tests used:
[1] = system: S100A7-expressing transgenic mice; parameters: method as in PMID 25572331
[2] = system: diabetic mice; parameters: method as in PMID 18245563, PMID 26807573, PMID 14568011
[3] = system: human RAGE-Aβ1–42; conditions: ELISA on human RAGE-Aβ1–42

| IC50 [3] [µM] | Molecule | tumor development and metastasis [1] | ischemia–reperfusion injury [2] |
| --- | --- | --- | --- |
| – | sRAGE: circulating soluble form of RAGE lacking transmembrane and cytoplasmic domains, acts as a decoy | inhibited further tumor development and metastasis | protects them against ischemia–reperfusion injury |
| 1.9 | CCCCOc1cc(OCCCN(CC)CC)ccc1NC(=O)c1cc(-c2ccc(Oc3ccc(F)cc3)cc2)nn1C [Compound 7] | – | – |
